Kd and other: Norm. change (H3K9cr-NCP band intensity) data for 3 molecules are collected here from article PMC6212594, “Structural insights into the π-π-π stacking mechanism and DNA-binding activity of the YEATS domain” (Nature Communications, 2018).

One data set has as its system AF9-YEATS (Homo sapiens). The data set can be described thus: EMSA. The conditions noted are these: EMSA: 20 mM Tris-HCl pH 7.5, 150 mM NaCl (nucleosomes: plus 0.1 mM EDTA, 10% glycerol), 30 min at room temperature; 5-10% native PAGE in 0.2x TB or TBE on ice. For orientation: Mobility shift assays separate free from complexed probe on a gel.
The target in data set [1] is H3K9cr-containing nucleosome core particle, P68431;P62805. The experiment in a line: EMSA. The conditions noted are these: chain shown with the change, 1 pmol/lane H3K9cr-NCP, 20 mM Tris-HCl pH 7.5, 150 mM NaCl, 0.1 mM EDTA, 10% glycerol, 30 min at room temperature, read off a plot.

For orientation: Kd means the free concentration of one partner at which half of the binding sites on the other are occupied at equilibrium, for simple one-to-one binding.

Regarding 20-bp dsDNA, the Kd in the data set on AF9-YEATS (Homo sapiens) was 57 µM.

In the case of 15-bp dsDNA, the equilibrium dissociation constant (Kd) in the data set with AF9-YEATS (Homo sapiens) was found to be 47 µM.

B1: AF9-YEATS domain (aa 1-138), P42568 R61E; K63E; K67E (protein)
chain: MASSCAVQVKLELGHRAQVRKKPTVEGFTHDWMVFVRGPEHSNIQHFVEKVVFHLHESFPEPERVCEDPPYKVEESGYAGFILPIEVYFKNKEEPRKVRFDYDLFLHLEGHPPVNHLRCEKLTFNNPTEDFRRKLLKA
Turning to B1, the other: Norm. change (H3K9cr-NCP band intensity) amounted to 0.72 in data set [1] (DNA:protein ratio 1:5, parent: est. 0.97); 0.37 in data set [1] (DNA:protein ratio 1:30, parent: est. 0.26); 0.5 in data set [1] (DNA:protein ratio 1:100, parent: est. 0.07).
